Values of other authors, collected in patent US20250127985A1, “IMPLANTABLE AND REFILLABLE DRUG DELIVERY RESERVOIR SYSTEM WITH POROUS METAL FRIT FOR SUSTAINED INTRACEREBROVENTRICULAR DELIVERY AND METHODS OF USE” (Genentech, Inc., priority 2022, published 2025).

Details: bovine serum albumin in water at 20° C. (Molokhia et al, Exp Eye Res 2008)

**Q.** Which “Diff. Coeff” value does the source give for bovine serum albumin [BSA] here?
**A.** 6.1E−07 cm^2/s

**Q.** And the “Diff. Coeff” value (listed as bovine serum albumin)?
**A.** 6.1 e-7 cm^2/s

Where two headings read alike, the source gives them in different places.
